Tests used:
[1] = biological target: Firefly luciferase (Photinus pyralis, UniProt P08659, N119G/N50D); assay: Direct inhibition of Firefly luciferase (counter-test of FLuc K529ac screen)
[2] = biological target: SirT2 (Homo sapiens, UniProt Q8IXJ6); assay: FLuc K529ac-based KDAC assay, inhibition or activation of SirT2 deacetylation; conditions: read-out: IC50 against SirT2, n=2

Amino acid sequences for entries named in this document (tags omitted). Residues count along the entry.
UniProt P08659, whole entry N50D/N119G: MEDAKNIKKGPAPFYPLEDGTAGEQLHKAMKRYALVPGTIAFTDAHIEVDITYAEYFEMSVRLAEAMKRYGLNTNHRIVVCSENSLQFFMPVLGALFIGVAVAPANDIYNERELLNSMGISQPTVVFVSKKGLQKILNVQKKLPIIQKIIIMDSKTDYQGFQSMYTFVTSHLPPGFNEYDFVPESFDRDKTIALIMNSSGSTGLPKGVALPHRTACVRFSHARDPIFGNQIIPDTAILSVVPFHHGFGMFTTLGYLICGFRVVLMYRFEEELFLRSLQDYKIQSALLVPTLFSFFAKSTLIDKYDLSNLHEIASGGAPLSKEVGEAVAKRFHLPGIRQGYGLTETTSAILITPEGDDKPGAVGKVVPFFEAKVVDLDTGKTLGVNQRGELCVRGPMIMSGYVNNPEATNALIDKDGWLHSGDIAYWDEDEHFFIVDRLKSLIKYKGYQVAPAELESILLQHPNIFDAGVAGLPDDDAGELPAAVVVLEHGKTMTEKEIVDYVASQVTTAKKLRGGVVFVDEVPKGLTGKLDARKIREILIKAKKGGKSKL
UniProt Q8IXJ6, 56-356 limits assumed: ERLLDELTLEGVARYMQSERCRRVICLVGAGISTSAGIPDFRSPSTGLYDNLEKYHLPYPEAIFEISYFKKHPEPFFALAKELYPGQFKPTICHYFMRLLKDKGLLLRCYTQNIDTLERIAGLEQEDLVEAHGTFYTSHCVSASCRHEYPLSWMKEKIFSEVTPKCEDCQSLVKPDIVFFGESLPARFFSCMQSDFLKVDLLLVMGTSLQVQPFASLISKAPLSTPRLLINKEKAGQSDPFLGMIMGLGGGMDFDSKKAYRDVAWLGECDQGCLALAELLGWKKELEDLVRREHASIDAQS

| Structure (SMILES) | IC50 [2] [µM] | Direct inhibition of FLuc [1] | IC50 ([1]; read-out: Firefly luciferase inhibition IC50) [µM] |
| --- | --- | --- | --- |
| O=C(NCCCN1CCCC1=O)c1cccc2c3c([nH]c12)CCC3 | – | direct inhibition of FLuc | 3 |
| COc1cc(O)cc(/C=C/c2ccccc2)c1 | > 30 | – | – |

Now from value to molecule, other results behind:

| IC50 [2] [µM] | Structure (SMILES) | Direct inhibition of FLuc [1] | IC50 ([1]; read-out: Firefly luciferase inhibition IC50) [µM] |
| --- | --- | --- | --- |
| 15 | O=C(Nc1ccc(-c2cn3c(C(=O)N4CCOCC4)csc3n2)cc1)c1ccccc1 | – | – |
| 11 | CN(C)C(=O)c1csc2nc(-c3ccc(NC(=O)c4cccs4)cc3)cn12 | – | – |
| 17 | Oc1cc(O)cc(/C=C/c2ccccc2)c1 | – | – |

Reference: patent US20200240995A1, “KDAC VARIANTS AND USES THEREOF” (Max-Planck-Gesellschaft Zur Forderung Der Wissenschaften …, priority 2017, published 2020)
